Values of other authors as cited in publication PMC4307180, “Overcoming myelosuppression due to synthetic lethal toxicity for FLT3-targeted acute myeloid leukemia therapy” (eLife, 2014).

System: HMC1.1 cells (KIT V560G)
Settings: proliferation, Figure 2A and reference values; ref de Jong and Zon, 2005; Guo et al., 2007; Kampa-Shittenhelm et al., 2013; cited from earlier work

Structure (SMILES): CC(C)(C)c1cc(NC(=O)Nc2ccc(-c3cn4c(n3)sc3cc(OCCN5CCOCC5)ccc34)cc2)no1.Cl.Cl [AC220, N-(5-tert-Butyl-isoxazol-3-yl)-N'-{4-[7-(2-morpholin-4-yl-ethoxy)imidazo[2,1-b][1,3]benzothiazol-2-yl]phenyl}urea Dihydrochloride]
- inhibition of FLT3- versus KIT-driven cell lines: equipotent inhibition of FLT3 and KIT-driven cell lines
